Results reported in ChEMBL document CHEMBL4622831, “Anti-diabetic drugs recent approaches and advancements” (Bioorg Med Chem, 2020).

By UniProt entry, the sequences of proteins in these tests, tags left out.
UniProt P27487, whole entry, looked up: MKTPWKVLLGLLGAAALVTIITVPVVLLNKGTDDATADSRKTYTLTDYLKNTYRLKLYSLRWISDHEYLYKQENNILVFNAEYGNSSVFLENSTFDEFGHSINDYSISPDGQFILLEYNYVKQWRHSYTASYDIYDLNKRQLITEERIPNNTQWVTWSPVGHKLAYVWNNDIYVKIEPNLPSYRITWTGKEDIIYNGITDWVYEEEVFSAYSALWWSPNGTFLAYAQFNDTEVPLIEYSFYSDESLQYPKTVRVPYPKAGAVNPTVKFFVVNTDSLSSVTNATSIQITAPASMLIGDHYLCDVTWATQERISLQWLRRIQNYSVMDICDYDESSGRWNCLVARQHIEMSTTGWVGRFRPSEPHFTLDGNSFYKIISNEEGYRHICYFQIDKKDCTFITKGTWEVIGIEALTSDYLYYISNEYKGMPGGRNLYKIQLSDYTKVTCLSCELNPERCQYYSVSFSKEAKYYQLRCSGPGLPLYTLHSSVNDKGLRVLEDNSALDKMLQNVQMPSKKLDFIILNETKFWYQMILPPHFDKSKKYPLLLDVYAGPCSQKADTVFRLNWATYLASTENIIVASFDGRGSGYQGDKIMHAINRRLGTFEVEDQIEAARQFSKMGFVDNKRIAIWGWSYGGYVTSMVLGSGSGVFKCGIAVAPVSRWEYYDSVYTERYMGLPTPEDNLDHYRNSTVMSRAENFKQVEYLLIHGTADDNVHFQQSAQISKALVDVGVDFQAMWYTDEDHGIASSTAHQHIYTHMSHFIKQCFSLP

Molecular target: Dipeptidyl peptidase 4 (Homo sapiens, UniProt P27487)
Details: 100 uM

inhibition: 53%
SMILES: Brc1nc2n(n1)CC(c1cc3ccccc3o1)=NN2
